ChEMBL document CHEMBL1132469, “Amide analogues of trichostatin A as inhibitors of histone deacetylase and inducers of terminal cell differentiation” (J Med Chem, 1999)

Target: T1, Histone deacetylase HD2 (Zea mays, UniProt Q94F81)
T1 sequence (Q94F81 whole entry): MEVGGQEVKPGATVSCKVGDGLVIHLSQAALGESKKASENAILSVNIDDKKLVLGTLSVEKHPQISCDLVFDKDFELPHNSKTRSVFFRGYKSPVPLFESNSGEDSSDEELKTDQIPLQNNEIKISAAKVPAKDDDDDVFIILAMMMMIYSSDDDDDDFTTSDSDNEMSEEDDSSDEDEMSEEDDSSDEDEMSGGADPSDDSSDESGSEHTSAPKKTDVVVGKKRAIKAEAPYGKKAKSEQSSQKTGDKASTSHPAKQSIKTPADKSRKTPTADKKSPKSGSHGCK
Assay: Inhibition of maize Histone deacetylase 2 (HD-2) activity

## CC(/C=C/C(=O)NO)=C\[C@@H](C)C(=O)c1ccc(N(C)C)cc1 [TRICHOSTATIN]
  IC50: 3 nM
